Data from patent US20240059676A1, “THYROID HORMONE RECEPTOR b SELECTIVE AGONIST COMPOUND, PHARMACEUTICAL COMPOSITION AND USE THEREOF” (SHANGHAI INSTITUTE OF MATERIA MEDICA, CHINESE ACADEMY OF …, priority 2020, published 2024).

Amino acid sequences for entries named in this document (tags omitted).
UniProt P10828, whole entry: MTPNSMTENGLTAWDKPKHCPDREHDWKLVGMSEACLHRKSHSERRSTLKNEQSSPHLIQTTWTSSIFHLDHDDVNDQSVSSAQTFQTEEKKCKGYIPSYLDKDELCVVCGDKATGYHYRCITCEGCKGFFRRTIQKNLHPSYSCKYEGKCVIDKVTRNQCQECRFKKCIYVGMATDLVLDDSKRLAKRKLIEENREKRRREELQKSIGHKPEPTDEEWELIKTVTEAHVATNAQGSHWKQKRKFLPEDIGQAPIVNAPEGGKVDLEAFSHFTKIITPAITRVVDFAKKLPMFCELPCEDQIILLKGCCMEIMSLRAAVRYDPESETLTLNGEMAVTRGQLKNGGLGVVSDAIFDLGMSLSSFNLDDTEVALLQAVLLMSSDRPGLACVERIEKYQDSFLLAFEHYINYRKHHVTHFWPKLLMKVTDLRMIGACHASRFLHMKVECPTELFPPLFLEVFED

What was measured:
[1] = test system: serum cholesterol level; assay: Lowering effect on serum cholesterol level after single administration to ICR mice; conditions: 24 h after administration, solvent control as 100%
[2] = target: human THRβ (Homo sapiens (Human), UniProt P10828); assay: THR reporter gene method, agonistic activity on THRβ (Huh7 cells, PGL4.26-DR4-Luc); format: cell-based; conditions: for β selectivity: (EC50 compound THRα/EC50 T3 THRα)/(EC50 compound THRβ/EC50 T3 THRβ); for Activity or selectivity compared with the positive control (MGL-3196): THR reporter gene assay, summary in words
[3] = single intragastric dose 30 mg/kg

β selectivity [2] | Structure (SMILES) | Percentage of reduction in serum cholesterol level ([1]; single intragastric dose 10 mg/kg) | Activity or selectivity compared with the positive control (MGL-3196) [2] | Percentage of reduction in serum cholesterol level [1, 3]
6 | N#Cc1nn(-c2cc(Cl)c(-n3ccc4cc(O)ccc43)c(Cl)c2)c(=O)[nH]c1=O | 20.0% | significantly higher activity or selectivity than the positive control | 
8 | N#Cc1nn(-c2cc(Cl)c(N3CCc4cc(O)ccc43)c(Cl)c2)c(=O)[nH]c1=O |  |  | 11.6%
8.4 | Cc1c(O)ccc2c1cnn2-c1c(Cl)cc(-n2nc(C#N)c(=O)[nH]c2=O)cc1Cl |  | significantly higher activity or selectivity than the positive control | 15.4%
4.7 | N#Cc1nn(-c2cc(Cl)c(-n3ccc4cc(O)cnc43)c(Cl)c2)c(=O)[nH]c1=O |  |  | 

More lines, now with the values behind:

Structure (SMILES) | β selectivity [2] | Percentage of reduction in serum cholesterol level ([1]; single intragastric dose 10 mg/kg) | Activity or selectivity compared with the positive control (MGL-3196) [2] | Percentage of reduction in serum cholesterol level [1, 3]
N#Cc1nn(-c2cc(Cl)c(-n3ncc4cc(O)ccc43)c(Cl)c2)c(=O)[nH]c1=O |  |  |  | 13.6%
Cc1c(O)ccc2c1ccn2-c1c(Cl)cc(-n2nc(C#N)c(=O)[nH]c2=O)cc1Cl | 3.8 |  | significantly higher activity or selectivity than the positive control | 25.4%
